Results reported in ChEMBL document CHEMBL5046283, “Design, Synthesis, and Biological Evaluation of the First Inhibitors of Oncogenic CHD1L” (J Med Chem, 2022).

Test: Microsomal stability in CD-1 mouse liver microsomes assessed as half life preincubated with NADPH for 5 mins followed by compound addition and measured upto 60 mins by LC-MS/MS analysis
Type: ADME, Microsome
Conditions: 1 h

## Cc1cc(Nc2ccc(NC(=O)Cc3cc(Br)cs3)cc2)nc(N2CCCC2)n1
  t1/2: 2.17 h
